Measurements as given in patent publication US7781642B2, “Animal model having a chimeric human liver and susceptible to human hepatitis C virus infection” (KMT Hepatech, Inc., priority 2000, dated 2010).

Assays:
HCV (genotype 3) = assay: Interferon alpha-2b treatment of HCV-infected Scid/uPA mice with chimeric human liver; serum HCV titre by RT-PCR; type: in vivo, mouse; conditions: all 3 treated animals (135 or 1350 IU/g/d)
Excerpt: Animals: Human hepatocytes were isolated from pieces of human liver tissue obtained from the operating theater using continuous perfusion with collagenase (Liberase HI, Boehringer Mannheim). Homozygote SCID/uPA mice were transplanted with 0.5×10^6 to 1.0×10^6 fresh human hepatocytes via intrasplenic injection at 10-15 days of age. At 4 weeks post-transplant blood was drawn and assayed for human albumin (HA) concentration using a quantitative dot blot assay.
HCV infection: At 8 weeks post-transplant, mice were injected intraperitoneally with 50 μl of serum from a HCV positive liver transplant patient, genotype 3. The serum was stored at −70 degrees Celsius and thawed out at time of inoculation. […] All HCV quantitation was performed by the Provincial Laboratory at the University of Alberta Hospital using the Cobas Amplicor HCV Monitor version 2.0 (Roche Diagnostics).
Interferon administration: The mice were divided into 3 treatment groups: group 1=controls (n=5), group 2=interferon-α2b (IFN) 135 IU/g/d (n=1), group 3=1350 IU/g/d (n=2). Treatment was started 2 weeks after HCV inoculation. The IFN (or an equivalent volume of normal saline) was injected IM for 15 consecutive days. Blood was drawn to assay for HCV RNA levels and graft function at the start of treatment, at the end of treatment, and 2 and 4 weeks after treatment had stopped. […]

HCV = conditions: anti-HCV therapy in humans; cited from earlier work

Substance: interferon alpha-2b [IFN]
- Course of viral titres in treated animals (HCV (genotype 3)): decreasing viral titres

Substance: interferon-α
- Time of therapy after which the effect is detectable (HCV): about 12 weeks
